Source: ChEMBL document CHEMBL6083264, “Superacid-Synthesized Fluorinated Diamines Act as Selective hCA IV Inhibitors” (J Med Chem, 2024)

How the values were obtained:
[1] = Selectivity ratio of IC50 for CA-I (unknown origin) to IC50 for human CA-IV
[2] = Selectivity ratio of IC50 for CA-II (unknown origin) to IC50 for human CA-IV
[3] = Selectivity ratio of IC50 for CA-IX (unknown origin) to IC50 for human CA-IV
[4] = Selectivity ratio of IC50 for CA-XII (unknown origin) to IC50 for human CA-IV

Ratio IC50 [1]: 63
Ratio IC50 [2]: 34
Ratio IC50 [3]: 31
Ratio IC50 [4]: 59
Compound: CC(F)CNS(=O)(=O)c1ccc([N+](=O)[O-])cc1 (centres undefined)
